Values of other authors as cited in patent US20030087395A1, “Cardiotrophin-like cytokine” (Human Genome Sciences, Inc., priority 1997, published 2003).

B1: IL-3: gp140 family ligand (myeloid) (protein, UniProt P08700 20-152, looked up)
Interleukin-3: APMTQTTPLKTSWVNCSNMIDEIITHLKQPPLPLLDFNNLNGEDQDILMENNLRRPNLEAFNRAVKSLQNASAIESILKNLLPCLPLATAAPTRHPIHIKDGDWNEFRRKLTFYLKTLENAQAQQTTLSLAIF

Key:
[1] = system: GAS or ISRE; conditions: element bound; adapted from Schidler and Darnell review; cited from earlier work
[2] = system: STATS; conditions: numbers of the STATs activated; adapted from Schidler and Darnell review; cited from earlier work

Molecule | GAS or ISRE [1] | STATS [2]
IL-2: g-C family ligand (lymphocytes) | GAS | –
B1 | GAS | 5
